{"sequences": {"note": "Chains of the proteins cited; added tags and fusions are not shown.", "UniProt P47745, whole entry": "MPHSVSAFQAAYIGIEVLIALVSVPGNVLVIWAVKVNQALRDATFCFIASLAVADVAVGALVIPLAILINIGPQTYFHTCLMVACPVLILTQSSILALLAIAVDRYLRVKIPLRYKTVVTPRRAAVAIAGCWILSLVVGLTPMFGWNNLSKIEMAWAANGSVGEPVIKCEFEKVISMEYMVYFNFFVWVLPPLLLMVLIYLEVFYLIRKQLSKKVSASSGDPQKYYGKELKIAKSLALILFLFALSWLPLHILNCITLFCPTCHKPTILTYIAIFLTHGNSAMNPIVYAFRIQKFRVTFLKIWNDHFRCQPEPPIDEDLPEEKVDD"}, "source": "patent US20110002843A1", "about": "“METHOD OF DETECTING MYOCARDIAL DYSFUNCTION IN PATIENTS HAVING A HISTORY OF ASTHMA OR BRONCHOSPASM” (priority 2005, published 2011)", "origin": "cited, not measured here", "target": "A1 adenosine receptor (Cavia porcellus, UniProt P47745)", "design": "a Langendorff guinea pig heart preparation; from tissue; host or cells: isolated perfused guinea pig heart (Langendorff)", "details": "heart paced at 260 beats/min; data of U.S. Pat. No. 5,278,150; read-out: EC50—SQPR (A1); cited from earlier work"}
{"smiles": "COc1ccc(C=NNc2nc(N)c3ncn([C@@H]4O[C@H](CO)[C@@H](O)[C@H]4O)c3n2)cc1", "note": "[F, 2-[2-(4-Methoxybenzylidene)hydrazino]adenosine]", "values": [{"measurement": "EC50", "result": 22.9, "unit": "µM"}]}
